ChEMBL document CHEMBL2424634, “Synthesis and SAR studies of 5-(pyridin-4-yl)-1,3,4-thiadiazol-2-amine derivatives as potent inhibitors of Bloom helicase” (Bioorg Med Chem Lett, 2013)

By UniProt entry, the sequences of proteins in these tests, tags left out. Where a name states a change or a piece, a line headed by the entry shows the natural chain unless it says otherwise.
UniProt P54132: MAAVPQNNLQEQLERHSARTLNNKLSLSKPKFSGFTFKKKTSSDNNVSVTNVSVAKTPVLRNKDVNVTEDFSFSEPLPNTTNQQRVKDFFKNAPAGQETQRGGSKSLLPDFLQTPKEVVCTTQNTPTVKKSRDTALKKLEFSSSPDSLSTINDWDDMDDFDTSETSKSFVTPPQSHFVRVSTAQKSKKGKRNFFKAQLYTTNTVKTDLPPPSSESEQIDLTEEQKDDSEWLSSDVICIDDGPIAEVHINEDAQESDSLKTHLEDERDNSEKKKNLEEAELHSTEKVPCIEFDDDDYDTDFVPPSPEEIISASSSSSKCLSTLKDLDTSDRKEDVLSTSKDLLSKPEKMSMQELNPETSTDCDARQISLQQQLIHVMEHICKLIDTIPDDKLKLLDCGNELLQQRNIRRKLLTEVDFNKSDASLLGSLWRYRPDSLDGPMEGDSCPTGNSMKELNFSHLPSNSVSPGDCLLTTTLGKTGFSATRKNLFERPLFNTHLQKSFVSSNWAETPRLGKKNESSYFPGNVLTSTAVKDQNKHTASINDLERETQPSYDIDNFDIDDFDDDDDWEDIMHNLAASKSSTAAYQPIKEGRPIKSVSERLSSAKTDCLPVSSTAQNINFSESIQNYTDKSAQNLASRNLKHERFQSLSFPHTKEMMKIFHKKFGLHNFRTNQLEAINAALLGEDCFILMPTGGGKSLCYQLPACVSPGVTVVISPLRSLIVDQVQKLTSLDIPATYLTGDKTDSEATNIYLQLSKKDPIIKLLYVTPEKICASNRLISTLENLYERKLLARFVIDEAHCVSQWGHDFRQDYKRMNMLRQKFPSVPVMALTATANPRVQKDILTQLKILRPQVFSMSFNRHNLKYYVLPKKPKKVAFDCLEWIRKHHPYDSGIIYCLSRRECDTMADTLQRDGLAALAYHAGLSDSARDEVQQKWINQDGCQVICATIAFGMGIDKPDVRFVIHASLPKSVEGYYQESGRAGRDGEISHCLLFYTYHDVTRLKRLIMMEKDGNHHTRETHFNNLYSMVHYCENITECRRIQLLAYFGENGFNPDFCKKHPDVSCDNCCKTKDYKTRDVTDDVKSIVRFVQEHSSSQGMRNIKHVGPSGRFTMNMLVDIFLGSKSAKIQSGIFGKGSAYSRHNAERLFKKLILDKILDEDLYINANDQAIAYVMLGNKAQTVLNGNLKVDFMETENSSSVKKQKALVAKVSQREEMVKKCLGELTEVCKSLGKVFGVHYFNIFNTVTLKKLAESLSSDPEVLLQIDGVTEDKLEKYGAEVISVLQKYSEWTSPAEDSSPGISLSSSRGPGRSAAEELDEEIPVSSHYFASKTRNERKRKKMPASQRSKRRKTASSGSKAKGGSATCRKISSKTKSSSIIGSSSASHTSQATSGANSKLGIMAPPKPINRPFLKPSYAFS

Molecular target: RecQ-like DNA helicase BLM (Homo sapiens, UniProt P54132)
Assay: Inhibition of BLM (unknown origin) by gel-based DNA unwinding assay

IC50: 1800 nM
SMILES: O=C(Nc1ccc(F)c(C(F)(F)F)c1)Nc1nnc(-c2ccncc2)s1
